Patent US20130210034A1, “COMPLEX PHOSPHOPROTEIN ACTIVATION PROFILES” (BECKMAN COULTER, INC., priority 2005, published 2013)

How the values were obtained:
Type in all cases: cell-based, human
[1] = system: pERK; test: Cytokine-stimulated phosphorylation in immunophenotypically defined cell populations from healthy donor BM (flow cytometry); conditions: for pERK Percent (%) Responding Cells, Mean / pERK S/N ratio: healthy donor BM, mean ± SD;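 for pERK S/N ratio: Phosphoprotein MFI normalized to lymphocyte MFI as internal negative control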
Procedure: (§1) Bone marrow (BM) samples were collected in 7.5 mL Iscove's modified Dulbecco's medium (IMDM) supplemented with 100U penicillin, 0.01 mg/mL streptomycin, and 70 μg/mL heparin sodium salt from 10 patients undergoing hip replacement surgery, who were otherwise healthy. These patients were from a pool of surgery patients, age 49 to 77, and represented 7 female and 8 male patients. Wright Giemsa stained slides prepared from these samples were examined by Hematopathologist (AC) to confirm that no underlying hematological disorders were present. These BM samples were rinsed twice with IMDM to release cells, filtered using a 100 μm Nylon cell strainer to remove marrow particles, and centrifuged for at RT fro 7 minutes at 200 g. The cell pellet was washed twice with sterile IMDM to remove traces of fat and re-suspended in IMDM to a concentration of 3×10^7 cells/mL.
(§2) To assess the signal transduction response after growth factor simulation, a series comprising two sets of tubes including about 3×10^6 cells/100 μL were incubated at 37° C. for 30 minutes. After this pre-incubation period, tubes with then processes with either a stimulant or inhibitor. For signal stimulation, tubes were incubated at 2 minutes, 3.5 minutes, 7 minutes, 15 minutes, and 30 minutes with one of the following cytokines to stimulate protein phosphorylation: 10 ng/100 μL SCF, 50 ng/100 μL FL, 10 ng/100 μL GM-CSF, 10 ng/100 μL IL-3, or 10 ng/100 μL G-CSF. To examine the effects of protein phosphorylation inhibition, tubes were incubated with an inhibitor cocktail comprising 100 μM/100 μL UO126, 1 μM/100 μL LY294002, and 1 μM/100 μL rapamycin. One unstimulated tube receiving no stimulant or inhibitor was processed to assess basal levels of phospho-protein expression. After stimulation the cells were immediately fixed in 10% formaldehyde solution at 37° C. Pre-labeling with CD13, CD16 and CD64 antibodies was carried out 20 minutes prior to formaldehyde fixation. After fixation, one set of tubes was permeabilized without methanol for pAKT, pERK and pS6 staining and the other for 80% methanol permeabilized for pSTAT3 and pSTAT5 staining. After permeablization, the cells were washed in PBS with 2% BSA and blocked by re-suspended in 75 μL of PBS comprising 25% heat inactivated normal mouse serum, 25% normal rabbit serum. To stain cells with fluorescent conjugated monoclonal antibodies, samples were incubated on ice for 45 minutes in 100 μL of an antibody staining solution including either: 1) CD15-Pacific Orange, CD34-Phycoerythrin-Texas Red, CD117-Phycoerythrin-Cyanin 5.5, CD45-Allophycocyanin-Alexa Fluor 750 (or CD45-Pacific Orange, in which case CD15-Pacific Orange was omitted), pS6-Pacific Blue, pERK-Alexa Fluor 488 and pAKT-Alexa Fluor 647 or 2) CD15-Pacific Orange, CD34-Phycoerythrin-Texas Red, CD117-Phycoerythrin-Cyanin 5.5, CD45-Allophycocyanin-Alexa Fluor 750 or CD45-Pacific Blue, pSTAT3-Alexa Fluor 488 and pSTAT5-Phycoerythrin. The stained cells were washed twice with ice cold PBS containing 2% BSA and centrifuged at 800 g for 6 minutes at 4° C. The supernatant was discarded and cells re-suspended in 250 μL of chilled wash buffer for data acquisition. Stained cells were examined using either GALIOS flow cytometer (Beckman Coulter) or CYAN ADP (Beckman Coulter) equipped with 488 nm, 405 nm and 635 nm lasers to detect the degree of fluorescence. Data were analyzed using FCS Express (De Novo Software, CA) analysis software.
(§3) Specific phosphoprotein expression of pERK, pS6, pAKT, pSTAT5, and pSTAT3 was examined in seven discrete phenotypically defined populations based on 7-color immunophenotyping (FIG. 1). The percent of responding (phosphorprotein positive) cells for each of these populations was determined from individual single parameter histograms based on a fixed integration region set on the inhibitor treated control at about 3% positives. […]

[2] = system: pSTAT3; test: as above; conditions: mean ± SD;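 for pSTAT3 S/N ratio: Phosphoprotein MFI normalized to lymphocyte MFI as internal negative control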
Procedure: as §1, §2, §3

[3] = system: pSTAT5; test: as above; conditions: mean ± SD;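 for pSTAT5 S/N ratio: Phosphoprotein MFI normalized to lymphocyte MFI as internal negative control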
Procedure: as §1, §2, §3

[4] = system: pERK; test: Cytokine-stimulated phosphorylation in AML cell populations (BM or PB of AML patients); conditions: patient AML8 (Example 3)
Procedure: To assess the signal transduction response after growth factor simulation, a series comprising two sets of tubes including about 3×10^6 cells/100 μL were incubated at 37° C. for 30 minutes. After this pre-incubation period, tubes with then processes with either a stimulant or inhibitor. For signal stimulation, tubes were incubated at 2 minutes, 3.5 minutes, 7 minutes, 15 minutes, and 30 minutes with one of the following cytokines to stimulate protein phosphorylation: 10 ng/100 μL SCF, 50 ng/100 μL FL, 10 ng/100 μL GM-CSF, 10 ng/100 μL IL-3, or 10 ng/100 μL G-CSF. […] Stained cells were examined using either GALIOS flow cytometer (Beckman Coulter) or CYAN ADP (Beckman Coulter) equipped with 488 nm, 405 nm and 635 nm lasers to detect the degree of fluorescence. Data were analyzed using FCS Express (De Novo Software, CA) analysis software.
as §3

[5] = CD34^+ (CD34^+/CD117^+ cells), listed as IL3
[6] = G1, immature myeloid cells, listed as IL3
[7] = G3, mature myeloid cells, listed as IL3

B1: Interleukin- 3 (protein, UniProt P08700 20-152, looked up)
Interleukin-3: APMTQTTPLKTSWVNCSNMIDEIITHLKQPPLPLLDFNNLNGEDQDILMENNLRRPNLEAFNRAVKSLQNASAIESILKNLLPCLPLATAAPTRHPIHIKDGDWNEFRRKLTFYLKTLENAQAQQTTLSLAIF
notes: colony-stimulating cytokine
B1 was tested, and the “pERK Percent (%) Responding Cells, Mean” value ([1]; CD34^+ (CD34^+/CD117^+ cells)) was 26%, the “pERK S/N ratio” value ([1]; CD34^+ (CD34^+/CD117^+ cells)) was 12.2 and the “pERK Percent (%) Responding Cells, Mean” value [1, 5] was 26.2 ± 9.1%. The “pERK S/N ratio” value [1, 5] was 12.2 ± 3.5, the “pERK Percent (%) Responding Cells, Mean” value ([1]; CD117^+ (CD34^−/CD117^+ cells)) was 10.0 ± 7.1% and the “pERK S/N ratio” value ([1]; CD117^+ (CD34^−/CD117^+ cells)) was 2.7 ± 0.6. For the same molecule, the “pERK Percent (%) Responding Cells, Mean” value ([1]; G1, immature myeloid cells) was 25.6%, the “pERK S/N ratio” value ([1]; G1, immature myeloid cells) was 4.3 ± 1.6 and the “pERK Percent (%) Responding Cells, Mean” value [1, 6] was 25.6 ± 26.2%. For the same molecule, the “pERK Percent (%) Responding Cells, Mean” value ([1]; G2, intermediate myeloid cells) was 47.4 ± 30.0%, the “pERK S/N ratio” value ([1]; G2, intermediate myeloid cells) was 5.7 ± 2.4 and the “pERK Percent (%) Responding Cells, Mean” value ([1]; G3, mature myeloid cells) was 41.1%. For the same molecule, the “pERK S/N ratio” value ([1]; G3, mature myeloid cells) was 6.2 ± 2.3, the “pERK Percent (%) Responding Cells, Mean” value [1, 7] was 41.1 ± 18.1% and the “pERK Percent (%) Responding Cells, Mean” value ([1]; Mono, monocytes) was 41.8 ± 19.4%. For the same molecule, the “pERK S/N ratio” value ([1]; Mono, monocytes) was 11.4, the “pERK S/N ratio” value ([1]; Mono, monocytes, listed as IL3) was 11.4 ± 4.7 and the “pERK, Normal Sample” value ([1]; Table 7 comparison value, matches percent responding CD34^+ cells of Tables 1-5) was 26.2. For the same molecule, the “pSTAT3 Percent (%) Responding Cells, Mean” value ([2]; CD34^+ (CD34^+/CD117^+ cells)) was 9.3 ± 6.1%, the “pSTAT3 S/N ratio” value ([2]; CD34^+ (CD34^+/CD117^+ cells)) was 1.9 ± 0.4 and the “pSTAT3 Percent (%) Responding Cells, Mean” value ([2]; CD117^+ (CD34^−/CD117^+ cells)) was 5.6 ± 4.3%. The “pSTAT3 S/N ratio” value ([2]; CD117^+ (CD34^−/CD117^+ cells)) was 2.6 ± 0.6, the “pSTAT3 Percent (%) Responding Cells, Mean” value ([2]; G1, immature myeloid cells) was 6.2 ± 5.2% and the “pSTAT3 S/N ratio” value ([2]; G1, immature myeloid cells) was 3.3 ± 0.6. For the same molecule, the “pSTAT3 Percent (%) Responding Cells, Mean” value ([2]; G2, intermediate myeloid cells) was 4.6 ± 2.7%, the “pSTAT3 S/N ratio” value ([2]; G2, intermediate myeloid cells) was 3.3 ± 0.7 and the “pSTAT3 Percent (%) Responding Cells, Mean” value ([2]; G3, mature myeloid cells) was 7.5 ± 5.6%. For the same molecule, the “pSTAT3 S/N ratio” value ([2]; G3, mature myeloid cells) was 3.7 ± 0.7, the “pSTAT3 Percent (%) Responding Cells, Mean” value ([2]; Mono, monocytes) was 4.9 ± 2.9% and the “pSTAT3 S/N ratio” value ([2]; Mono, monocytes) was 2.3 ± 0.4. For the same molecule, the “pSTAT5 Percent (%) Responding Cells, Mean” value ([3]; CD34^+ (CD34^+/CD117^+ cells)) was 76%, the “pSTAT5 S/N ratio” value ([3]; CD34^+ (CD34^+/CD117^+ cells)) was 19.3 ± 8.9 and the “pSTAT5 Percent (%) Responding Cells, Mean” value [3, 5] was 76.0 ± 7.5%. For the same molecule, the “pSTAT5 Percent (%) Responding Cells, Mean” value ([3]; CD117^+ (CD34^−/CD117^+ cells)) was 59.3 ± 16.0%, the “pSTAT5 S/N ratio” value ([3]; CD117^+ (CD34^−/CD117^+ cells)) was 12.4 ± 2.0 and the “pSTAT5 Percent (%) Responding Cells, Mean” value ([3]; G1, immature myeloid cells) was 96.6 ± 3.1%. For the same molecule, the “pSTAT5 S/N ratio” value ([3]; G1, immature myeloid cells) was 13.8, the “pSTAT5 S/N ratio” value [3, 6] was 13.8 ± 3.0 and the “pSTAT5 Percent (%) Responding Cells, Mean” value ([3]; G2, intermediate myeloid cells) was 98.7 ± 0.7%. For the same molecule, the “pSTAT5 S/N ratio” value ([3]; G2, intermediate myeloid cells) was 14.2 ± 3.2, the “pSTAT5 Percent (%) Responding Cells, Mean” value ([3]; G3, mature myeloid cells) was 98.2 ± 1.4% and the “pSTAT5 S/N ratio” value ([3]; G3, mature myeloid cells) was 17.7. The “pSTAT5 S/N ratio” value [3, 7] was 17.7 ± 3.8, the “pSTAT5 Percent (%) Responding Cells, Mean” value ([3]; Mono, monocytes) was 90.7 ± 4.3% and the “pSTAT5 S/N ratio” value ([3]; Mono, monocytes) was 13.5. The “pSTAT5 S/N ratio” value ([3]; Mono, monocytes, listed as IL3) was 13.5 ± 4.0 and the “pERK, AML Sample” value [4] was 57.3.
